Results as given in ChEMBL document CHEMBL5620393, “New aryl and acylsulfonamides as state-dependent inhibitors of Nav1.3 voltage-gated sodium channel” (Eur J Med Chem, 2023).

By UniProt entry, the sequences of proteins in these tests, tags left out.
UniProt P04775, whole entry, looked up: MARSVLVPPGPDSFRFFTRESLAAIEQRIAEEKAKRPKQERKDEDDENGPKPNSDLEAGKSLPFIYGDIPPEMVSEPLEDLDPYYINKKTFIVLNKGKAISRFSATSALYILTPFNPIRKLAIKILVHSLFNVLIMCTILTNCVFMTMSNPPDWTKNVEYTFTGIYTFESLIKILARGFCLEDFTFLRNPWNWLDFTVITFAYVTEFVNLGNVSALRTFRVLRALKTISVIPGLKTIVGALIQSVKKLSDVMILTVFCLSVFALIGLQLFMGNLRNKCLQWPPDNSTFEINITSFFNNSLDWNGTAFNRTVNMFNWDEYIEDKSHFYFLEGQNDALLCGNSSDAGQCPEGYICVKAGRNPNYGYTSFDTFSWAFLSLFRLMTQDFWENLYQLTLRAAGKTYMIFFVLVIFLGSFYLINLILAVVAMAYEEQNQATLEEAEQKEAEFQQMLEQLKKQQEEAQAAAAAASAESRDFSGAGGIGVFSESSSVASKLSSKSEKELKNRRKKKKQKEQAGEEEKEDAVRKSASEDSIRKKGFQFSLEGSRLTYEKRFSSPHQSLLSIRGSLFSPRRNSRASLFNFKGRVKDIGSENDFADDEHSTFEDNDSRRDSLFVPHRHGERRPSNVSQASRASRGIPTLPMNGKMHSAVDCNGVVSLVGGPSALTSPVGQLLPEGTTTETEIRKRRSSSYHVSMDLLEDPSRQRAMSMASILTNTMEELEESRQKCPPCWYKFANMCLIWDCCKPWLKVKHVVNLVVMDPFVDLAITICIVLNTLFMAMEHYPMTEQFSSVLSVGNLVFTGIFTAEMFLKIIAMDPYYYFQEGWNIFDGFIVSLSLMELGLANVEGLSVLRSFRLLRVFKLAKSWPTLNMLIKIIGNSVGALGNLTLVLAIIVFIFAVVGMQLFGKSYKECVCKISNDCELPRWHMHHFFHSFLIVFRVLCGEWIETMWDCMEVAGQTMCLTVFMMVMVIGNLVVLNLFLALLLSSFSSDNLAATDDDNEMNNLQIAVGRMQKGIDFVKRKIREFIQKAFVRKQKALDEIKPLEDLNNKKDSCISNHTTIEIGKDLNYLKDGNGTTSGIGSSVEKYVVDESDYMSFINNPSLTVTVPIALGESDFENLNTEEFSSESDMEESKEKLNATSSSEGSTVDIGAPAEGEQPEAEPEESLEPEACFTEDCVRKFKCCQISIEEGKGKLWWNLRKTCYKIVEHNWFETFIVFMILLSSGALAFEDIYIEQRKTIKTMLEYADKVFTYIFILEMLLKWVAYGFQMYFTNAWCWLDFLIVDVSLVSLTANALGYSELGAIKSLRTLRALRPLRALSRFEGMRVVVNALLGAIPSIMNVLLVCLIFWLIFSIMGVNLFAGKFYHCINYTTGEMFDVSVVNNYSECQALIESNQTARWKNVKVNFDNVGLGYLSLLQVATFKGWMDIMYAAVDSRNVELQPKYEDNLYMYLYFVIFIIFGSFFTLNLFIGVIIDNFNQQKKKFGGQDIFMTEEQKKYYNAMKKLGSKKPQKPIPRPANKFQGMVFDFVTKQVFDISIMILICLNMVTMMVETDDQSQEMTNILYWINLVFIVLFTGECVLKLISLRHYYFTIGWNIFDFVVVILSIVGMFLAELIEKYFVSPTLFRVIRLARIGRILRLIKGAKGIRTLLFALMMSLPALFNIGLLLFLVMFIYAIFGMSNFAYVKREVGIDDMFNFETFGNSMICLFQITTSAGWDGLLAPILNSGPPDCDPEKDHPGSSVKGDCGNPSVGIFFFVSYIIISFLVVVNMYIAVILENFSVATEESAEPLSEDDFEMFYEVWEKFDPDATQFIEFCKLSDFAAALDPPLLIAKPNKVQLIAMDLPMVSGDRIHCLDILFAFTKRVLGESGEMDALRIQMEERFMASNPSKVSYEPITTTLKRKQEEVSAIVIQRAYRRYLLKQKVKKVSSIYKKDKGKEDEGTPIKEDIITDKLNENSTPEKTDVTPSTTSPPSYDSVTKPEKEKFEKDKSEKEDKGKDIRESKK
UniProt P15390, whole entry: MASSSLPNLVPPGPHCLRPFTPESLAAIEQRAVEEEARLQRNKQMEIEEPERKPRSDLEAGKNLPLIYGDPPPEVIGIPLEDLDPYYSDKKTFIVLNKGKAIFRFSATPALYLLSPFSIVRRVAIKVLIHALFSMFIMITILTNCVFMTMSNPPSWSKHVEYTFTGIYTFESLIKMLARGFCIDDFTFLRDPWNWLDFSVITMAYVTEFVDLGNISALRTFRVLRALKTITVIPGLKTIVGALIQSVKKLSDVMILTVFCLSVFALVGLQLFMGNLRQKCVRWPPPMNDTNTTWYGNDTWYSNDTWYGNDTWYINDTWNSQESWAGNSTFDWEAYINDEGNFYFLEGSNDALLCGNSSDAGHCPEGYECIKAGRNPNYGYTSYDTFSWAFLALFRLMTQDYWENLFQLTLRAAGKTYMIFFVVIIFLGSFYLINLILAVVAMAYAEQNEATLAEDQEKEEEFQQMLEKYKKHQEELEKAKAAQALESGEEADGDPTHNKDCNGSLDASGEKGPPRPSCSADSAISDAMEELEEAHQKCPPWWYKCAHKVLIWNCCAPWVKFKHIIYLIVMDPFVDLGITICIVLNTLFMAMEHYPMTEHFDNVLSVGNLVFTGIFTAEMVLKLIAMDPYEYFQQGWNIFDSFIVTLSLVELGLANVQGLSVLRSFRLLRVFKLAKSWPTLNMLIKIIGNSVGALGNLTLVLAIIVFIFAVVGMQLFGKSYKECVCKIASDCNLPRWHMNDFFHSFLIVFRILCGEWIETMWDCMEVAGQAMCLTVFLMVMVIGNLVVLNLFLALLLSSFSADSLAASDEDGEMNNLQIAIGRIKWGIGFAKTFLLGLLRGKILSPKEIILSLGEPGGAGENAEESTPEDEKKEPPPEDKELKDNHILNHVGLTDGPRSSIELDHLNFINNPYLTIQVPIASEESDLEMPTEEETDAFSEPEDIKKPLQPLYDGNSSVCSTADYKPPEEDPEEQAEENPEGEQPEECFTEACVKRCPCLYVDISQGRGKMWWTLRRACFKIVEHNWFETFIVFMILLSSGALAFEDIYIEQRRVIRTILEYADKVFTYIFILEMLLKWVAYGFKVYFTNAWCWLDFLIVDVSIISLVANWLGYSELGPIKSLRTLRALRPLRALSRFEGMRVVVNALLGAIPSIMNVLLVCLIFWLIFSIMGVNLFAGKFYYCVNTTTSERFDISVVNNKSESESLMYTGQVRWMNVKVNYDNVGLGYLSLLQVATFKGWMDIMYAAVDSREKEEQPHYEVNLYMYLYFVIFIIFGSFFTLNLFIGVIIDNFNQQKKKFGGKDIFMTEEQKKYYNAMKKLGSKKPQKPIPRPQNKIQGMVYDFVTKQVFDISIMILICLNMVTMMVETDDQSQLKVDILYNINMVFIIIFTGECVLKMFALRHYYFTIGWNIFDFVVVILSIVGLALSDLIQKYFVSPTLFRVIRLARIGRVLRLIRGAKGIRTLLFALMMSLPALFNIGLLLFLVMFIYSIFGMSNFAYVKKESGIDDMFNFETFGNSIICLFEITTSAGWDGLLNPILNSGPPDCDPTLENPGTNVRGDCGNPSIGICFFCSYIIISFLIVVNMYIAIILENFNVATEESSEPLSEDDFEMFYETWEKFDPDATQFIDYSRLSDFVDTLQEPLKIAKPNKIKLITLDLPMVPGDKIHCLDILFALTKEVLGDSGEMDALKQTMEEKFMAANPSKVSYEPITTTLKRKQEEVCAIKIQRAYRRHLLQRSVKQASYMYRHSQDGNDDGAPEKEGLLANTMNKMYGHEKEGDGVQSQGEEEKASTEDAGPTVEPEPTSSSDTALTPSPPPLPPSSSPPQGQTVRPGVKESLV
UniProt Q9Y5Y9, whole entry, looked up: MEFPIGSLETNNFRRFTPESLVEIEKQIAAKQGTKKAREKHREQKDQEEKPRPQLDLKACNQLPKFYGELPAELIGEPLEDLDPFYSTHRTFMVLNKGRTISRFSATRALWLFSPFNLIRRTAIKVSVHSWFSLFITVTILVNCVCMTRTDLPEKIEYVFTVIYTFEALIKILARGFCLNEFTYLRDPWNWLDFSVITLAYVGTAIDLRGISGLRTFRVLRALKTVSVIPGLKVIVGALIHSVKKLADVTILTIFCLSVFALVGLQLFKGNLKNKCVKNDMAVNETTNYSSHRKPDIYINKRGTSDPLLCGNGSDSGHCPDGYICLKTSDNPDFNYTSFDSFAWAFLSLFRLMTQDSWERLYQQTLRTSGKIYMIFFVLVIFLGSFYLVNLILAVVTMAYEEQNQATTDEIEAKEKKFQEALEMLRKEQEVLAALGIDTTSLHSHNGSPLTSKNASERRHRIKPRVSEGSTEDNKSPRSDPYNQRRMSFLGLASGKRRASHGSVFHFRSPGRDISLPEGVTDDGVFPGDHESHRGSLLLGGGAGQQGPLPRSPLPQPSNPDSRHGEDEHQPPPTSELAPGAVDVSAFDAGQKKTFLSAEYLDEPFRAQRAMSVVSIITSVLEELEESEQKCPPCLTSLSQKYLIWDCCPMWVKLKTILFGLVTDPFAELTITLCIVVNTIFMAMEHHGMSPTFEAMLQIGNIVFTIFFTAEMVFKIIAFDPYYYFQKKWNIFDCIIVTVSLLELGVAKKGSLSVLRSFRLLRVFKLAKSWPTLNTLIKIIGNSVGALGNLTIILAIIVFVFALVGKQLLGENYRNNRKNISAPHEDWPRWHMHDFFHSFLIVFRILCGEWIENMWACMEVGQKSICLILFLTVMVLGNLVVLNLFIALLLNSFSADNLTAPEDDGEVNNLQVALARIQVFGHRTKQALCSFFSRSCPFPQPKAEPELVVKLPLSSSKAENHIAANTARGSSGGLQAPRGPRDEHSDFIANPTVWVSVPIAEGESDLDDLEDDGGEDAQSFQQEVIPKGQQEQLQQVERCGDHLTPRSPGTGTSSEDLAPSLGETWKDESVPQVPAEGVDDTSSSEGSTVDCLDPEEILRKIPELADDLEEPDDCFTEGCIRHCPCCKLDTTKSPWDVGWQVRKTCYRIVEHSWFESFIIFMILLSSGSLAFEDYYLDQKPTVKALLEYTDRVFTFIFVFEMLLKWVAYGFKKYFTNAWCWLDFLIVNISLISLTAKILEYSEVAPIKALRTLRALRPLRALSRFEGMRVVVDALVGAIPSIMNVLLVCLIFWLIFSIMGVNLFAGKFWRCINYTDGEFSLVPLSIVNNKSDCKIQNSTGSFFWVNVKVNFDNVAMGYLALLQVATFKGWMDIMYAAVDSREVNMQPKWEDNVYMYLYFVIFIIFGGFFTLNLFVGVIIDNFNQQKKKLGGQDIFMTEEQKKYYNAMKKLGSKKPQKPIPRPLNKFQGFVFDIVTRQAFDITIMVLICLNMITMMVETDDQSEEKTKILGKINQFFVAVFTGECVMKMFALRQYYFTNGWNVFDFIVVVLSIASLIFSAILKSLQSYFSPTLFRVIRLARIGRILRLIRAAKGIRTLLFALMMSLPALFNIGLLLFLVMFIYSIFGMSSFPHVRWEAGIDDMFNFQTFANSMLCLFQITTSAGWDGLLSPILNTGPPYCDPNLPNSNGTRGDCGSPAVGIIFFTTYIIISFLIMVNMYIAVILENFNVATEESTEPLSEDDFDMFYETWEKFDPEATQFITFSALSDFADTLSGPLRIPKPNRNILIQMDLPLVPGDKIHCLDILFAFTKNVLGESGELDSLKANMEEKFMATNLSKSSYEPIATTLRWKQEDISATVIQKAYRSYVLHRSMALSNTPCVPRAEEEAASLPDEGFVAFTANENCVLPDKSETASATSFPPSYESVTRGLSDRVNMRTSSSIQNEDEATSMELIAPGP

Experiments:
Type in all cases: cell-based
Settings in all cases: Oocyte
[1] = target: Sodium channel protein type 2 subunit alpha (Rattus norvegicus) (UniProt P04775); test: Inhibition of rat Nav1.2 expressed in Xenopus laevis oocytes at closed state at 1 uM by two electrode voltage-clamp assay
Procedure, shortened: (§1)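 TEVC on Nav channels expressed in Xenopus laevis oocytes. Each oocyte was injected with 50 nL cRNA at 1 ng/nL and recorded 1–4 days later at 18–22 °C. Bath (mM): NaCl 96, KCl 2, CaCl2 1.8, MgCl2 2, HEPES 5, pH 7.4. Electrodes held 3 M KCl at 0.8–1.5 MΩ. Compound tested at 1 μM. Mean ± SD, n ≥ 5.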

[2] = target: Sodium channel protein type 4 subunit alpha (Rattus norvegicus) (UniProt P15390); test: Inhibition of rat Nav1.4 expressed in Xenopus laevis oocytes at closed state at 1 uM by two electrode voltage-clamp assay; procedure, shortened: as §1
[3] = target: Sodium channel protein type 1 subunit alpha (Homo sapiens) (UniProt P35498); test: Inhibition of human Nav1.1 expressed in Xenopus laevis oocytes at closed state at 1 uM by two electrode voltage-clamp assay; procedure, shortened: as §1
[4] = target: Sodium channel protein type 8 subunit alpha (Mus musculus) (UniProt Q9WTU3); test: Inhibition of mouse Nav1.6 expressed in Xenopus laevis oocytes at closed state at 1 uM by two electrode voltage-clamp assay; procedure, shortened: as §1
[5] = target: Sodium channel protein type 10 subunit alpha (Homo sapiens) (UniProt Q9Y5Y9); test: Inhibition of human Nav1.8 expressed in Xenopus laevis oocytes at closed state at 1 uM by two electrode voltage-clamp assay; procedure, shortened: as §1
[6] = target: Sodium channel protein type 9 subunit alpha (Homo sapiens, UniProt Q15858); test: Inhibition of human Nav1.7 expressed in Xenopus laevis oocytes at closed state at 1 uM by two electrode voltage-clamp assay; procedure, shortened: as §1
[7] = target: Sodium channel protein type 3 subunit alpha (Rattus norvegicus) (UniProt P08104); test: Inhibition of rat Nav1.3 expressed in Xenopus laevis oocytes at 1 uM under inactivated state by two electrode voltage-clamp assay relative to control; procedure, shortened: as §1

| Compound | inhibition [1] | inhibition [2] | inhibition [3] | inhibition [4] | inhibition [5] | inhibition [6] | inhibition [7] [%] |
| --- | --- | --- | --- | --- | --- | --- | --- |
| CN(C)S(=O)(=O)NC(=O)c1ccc(NC(=O)c2cc3ccccc3o2)cc1 | inactive | inactive | inactive | inactive | inactive | inactive | – |
| O=C(Nc1cccc(S(=O)(=O)Nc2nccs2)c1)[C@@H]1C[C@H]1c1ccccc1 | inactive | inactive | inactive | inactive | inactive | inactive | – |
| C[C@@H](Oc1ccc(Cl)cc1)C(=O)Nc1ccc(C(=O)NS(C)(=O)=O)cc1 | inactive | inactive | inactive | inactive | inactive | inactive | – |
| O=C(Nc1ccc(S(=O)(=O)Nc2nccs2)cc1)c1cc(Br)c(Br)n1Cc1ccccc1 | inactive | inactive | inactive | inactive | inactive | inactive | 21 |
| O=C(Nc1cccc(S(=O)(=O)Nc2nccs2)c1)c1cc(Br)c(Br)n1Cc1ccccc1 | inactive | inactive | inactive | inactive | inactive | inactive | – |
| C[C@@H](Oc1ccc(Cl)cc1)C(=O)Nc1ccc(C(=O)NS(=O)(=O)N(C)C)cc1 | inactive | inactive | inactive | inactive | inactive | inactive | – |
| CS(=O)(=O)NC(=O)c1ccc(OC[C@@H]2C[C@H]2c2ccccc2)cc1 | inactive | inactive | inactive | inactive | inactive | inactive | – |
| CN(C)S(=O)(=O)NC(=O)c1ccc(NC(=O)[C@@H]2C[C@H]2c2ccccc2)cc1 | inactive | inactive | inactive | inactive | inactive | inactive | – |
| O=C(Nc1cccc(S(=O)(=O)Nc2nccs2)c1)c1cccn1Cc1ccccc1 | inactive | inactive | inactive | inactive | inactive | inactive | – |
| CS(=O)(=O)NC(=O)c1ccc(NC(=O)c2cc(Br)c(Br)n2-c2ccccc2)cc1 | inactive | inactive | inactive | inactive | inactive | inactive | – |
| O=C(Nc1ccc(S(=O)(=O)Nc2nccs2)cc1)c1cccn1-c1ccccc1 | inactive | inactive | inactive | inactive | inactive | inactive | – |
| O=C(Nc1ccc(S(=O)(=O)Nc2nccs2)cc1)c1cc(Br)c(Br)n1-c1ccccc1 | inactive | inactive | inactive | inactive | inactive | inactive | 21 |
| CC(=O)NS(=O)(=O)c1ccc(NC(=O)c2cc(Br)c(Br)n2Cc2ccccc2)cc1 | inactive | inactive | inactive | inactive | inactive | inactive | – |
| CC(=O)NS(=O)(=O)c1ccc(NC(=O)[C@@H]2C[C@H]2c2ccccc2)cc1 | inactive | inactive | inactive | inactive | inactive | inactive | – |
| C[C@H](Oc1ccc(Cl)cc1)C(=O)Nc1ccc(C(=O)NS(C)(=O)=O)cc1 | inactive | inactive | inactive | inactive | inactive | inactive | – |
| O=C(Nc1ccc(S(=O)(=O)Nc2nccs2)cc1)c1cccn1Cc1ccc(Cl)cc1 | inactive | inactive | inactive | inactive | inactive | inactive | 21 |
| CC(=O)NS(=O)(=O)c1ccc(NC(=O)c2cccn2Cc2ccc(Cl)cc2)cc1 | inactive | inactive | inactive | inactive | inactive | inactive | – |
| CN(C)S(=O)(=O)NC(=O)c1ccc(NC(=O)c2cccn2Cc2ccc(Cl)cc2)cc1 | inactive | inactive | inactive | inactive | inactive | inactive | – |
| Cc1nc(-c2c(Cl)cccc2Cl)sc1C(=O)N[C@@H](Cc1ccccc1)C(=O)O | inactive | inactive | inactive | inactive | inactive | inactive | – |
| CS(=O)(=O)NC(=O)c1ccc(NC(=O)c2cc(Br)c(Br)n2Cc2ccccc2)cc1 | inactive | inactive | inactive | inactive | inactive | inactive | – |
| O=C(Nc1ccc(S(=O)(=O)Nc2nccs2)cc1)c1cccn1Cc1ccccc1 | inactive | inactive | inactive | inactive | inactive | inactive | 21 |
| O=C(Nc1cccc(S(=O)(=O)Nc2nccs2)c1)c1cccn1Cc1ccc(Cl)cc1 | inactive | inactive | inactive | inactive | inactive | inactive | – |

Active and inactive are the calls of the source. The calls are words filed in the database; no cut-off is given here.
